Values of other authors in US7217431B2, “Controlled agglomeration” (LifeCycle Pharma A/S, priority 2001, dated 2007).

Details: Table 1 Poorly-Soluble Drug Candidates

Compound: Cc1nc2n(c(=O)c1CCN1CCC(c3noc4cc(F)ccc34)CC1)CCCC2 [Risperidone]
- Solubility In Water: Insoluble
